Consider 1 compound from article PMC11357160, “Gouregine, an α-Gem-Dimethyltetradehydrocularine Alkaloid, and Other Aporphinoid Alkaloids from the Bark of Guatteria olivacea (Annonaceae) and Their In Vitro Cytotoxic Activities” (Molecules, 2024).

For the assay, the system named is KG-1a (human myeloid leukemia). Put plainly: Alamar blue cytotoxicity assay, 72 h, KG-1a. The settings on record: SI = IC50 [noncancerous cells MRC-5]/IC50 [KG-1a]. The assay is classed as cell-based. How it is done:
The in vitro cytotoxic activities of the isolated compounds 1–9 were evaluated against the cancer cell lines HepG2 (human hepatocellular carcinoma), KG-1a (human myeloid leukemia), and HCT116 (human colon carcinoma), and the noncancerous cell line MRC-5 (human lung fibroblast) via the Alamar blue assay after 72 h of incubation.
The HepG2 (human hepatocellular carcinoma), KG-1a (human myeloid leukemia), HCT116 (human colon carcinoma), and MRC-5 (human lung fibroblast) cell lines were obtained from the American Type Culture Collection (ATCC, Manassas, VA, USA) and were cultured as recommended by the American Type Culture Collection (ATCC) animal culture guide. All the cell lines were tested for mycoplasma via a mycoplasma stain kit (Sigma-Aldrich) to validate the use of cells that were free from contamination.
For the cytotoxicity assay, cell viability was quantified via the Alamar blue method, as previously described. For all the experiments, the cells were plated in 96-well plates. The chemical constituents evaluated varied in purity between 90% and 99.8%, which was determined on the basis of the relative integrals of the signals of the constituents in relation to the signals of the impurities contained. […] The absorbances at 570 nm and 600 nm were measured via a SpectraMax 190 Microplate Reader (Molecular Devices, Sunnyvale, CA, USA). […]
A general note: Resazurin is reduced to fluorescent resorufin, in cell work by metabolically active cells.

Structures can show the parent of a compound that is named as a salt.

Regarding `COc1cccc2c1C(=O)c1c(O)c3c(c(O)c1C2=O)C[C@@](O)(C(=O)CO)C[C@@H]3O[C@H]1C[C@H](N)[C@H](O)[C@H](C)O1` [Doxorubicin, doxorubicin hydrochloride, reference compound], the “Selectivity index (SI)” value amounted to 6.45.
